In publication PMC7686152:

The substances below were run against 10% rhodamine-labeled F-actin (chicken | rabbit) (UniProt P68139) (assay: in vitro force reconstitution assay, TIRF microscopy).
Substance “C-terminally Halo-tagged full-length FHL3 (from UniProt Q13643 1-280) (natural protein)” has a patch half-life of 48.3 s.
Work on “C-terminally Halo-tagged full-length HIC5 (from UniProt O43294 1-461) (natural protein)” yielded a patch half-life of 42.7 s.
Work on “C-terminally Halo-tagged full-length zyxin (from UniProt Q15942 1-572) (natural protein)” yielded a patch half-life of 44.3 s.
